This is a selection; strong and weak results do not stand in their true shares. Entries with a potency or affinity are not part of this list. Active and inactive are the calls of the source.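 How the source made its calls: active means Half-maximal inhibitory dose from the fit at or below ten times the top valid tested dose; inconclusive means Invalid fit, or flat curve showing 30 to 70% inhibition; inactive means the rest.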

Amino acid sequences for entries named in this document (tags omitted). A change or cut given only in a name is not applied to a line headed by its entry.
UniProt Q9H3R0: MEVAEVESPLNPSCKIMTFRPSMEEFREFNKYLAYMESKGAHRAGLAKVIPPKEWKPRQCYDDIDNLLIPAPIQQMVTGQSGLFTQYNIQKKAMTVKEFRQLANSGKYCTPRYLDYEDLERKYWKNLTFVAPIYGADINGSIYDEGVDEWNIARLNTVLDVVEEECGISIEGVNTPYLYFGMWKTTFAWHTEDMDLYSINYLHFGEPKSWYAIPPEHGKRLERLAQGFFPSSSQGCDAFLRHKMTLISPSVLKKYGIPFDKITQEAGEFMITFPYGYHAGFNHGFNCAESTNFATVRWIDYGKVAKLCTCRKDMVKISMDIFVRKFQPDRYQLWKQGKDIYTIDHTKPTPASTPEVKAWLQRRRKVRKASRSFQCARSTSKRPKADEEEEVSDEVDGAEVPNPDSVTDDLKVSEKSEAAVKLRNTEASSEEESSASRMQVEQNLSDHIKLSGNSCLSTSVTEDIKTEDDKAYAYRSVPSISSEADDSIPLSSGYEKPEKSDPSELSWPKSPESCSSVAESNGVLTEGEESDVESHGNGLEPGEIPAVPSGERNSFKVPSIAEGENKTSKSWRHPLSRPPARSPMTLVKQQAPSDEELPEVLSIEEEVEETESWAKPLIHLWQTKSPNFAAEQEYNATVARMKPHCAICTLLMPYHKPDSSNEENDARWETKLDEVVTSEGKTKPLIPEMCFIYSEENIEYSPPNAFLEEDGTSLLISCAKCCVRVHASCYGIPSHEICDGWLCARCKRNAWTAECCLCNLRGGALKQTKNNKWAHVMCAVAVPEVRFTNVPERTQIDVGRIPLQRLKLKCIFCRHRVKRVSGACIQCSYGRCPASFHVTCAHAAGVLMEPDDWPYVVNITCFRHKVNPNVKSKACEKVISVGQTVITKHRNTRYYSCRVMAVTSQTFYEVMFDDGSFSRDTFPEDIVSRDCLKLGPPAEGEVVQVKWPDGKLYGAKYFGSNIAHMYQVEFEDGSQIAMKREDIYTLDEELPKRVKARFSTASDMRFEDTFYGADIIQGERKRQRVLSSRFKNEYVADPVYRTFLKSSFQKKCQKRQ

The target in this assay is Lysine-specific demethylase 4C (Homo sapiens) (UniProt Q9H3R0). The experiment in a line: GASC-1 (JMJD2C) histone demethylase inhibitors, dose response, biochemical, DELFIA europium, cherry-picked samples (AID 488835).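 Further: signal is the H3K9me2 demethylation product detected by a dimethyl-specific antibody.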 To be noted: GST-JMJD2C(1-420), H3K9me3 demethylation; at 6 µM (top of the series).
On to `Cc1ccc(OCC(=O)OC2CN3CCC2CC3)cc1` (stereo unspecified), for which the activity change, negative = inhibition was inactive: 2.04%.

(Values after PubChem BioAssay AID488835 (Broad Institute, 2010).)
